The text below walks through data of PubChem BioAssay AID651658 (Broad Institute, 2012).

Protein sequences, listed by entry. Tags and fused reporters are not part of them.
UniProt Q9HCT0, whole entry: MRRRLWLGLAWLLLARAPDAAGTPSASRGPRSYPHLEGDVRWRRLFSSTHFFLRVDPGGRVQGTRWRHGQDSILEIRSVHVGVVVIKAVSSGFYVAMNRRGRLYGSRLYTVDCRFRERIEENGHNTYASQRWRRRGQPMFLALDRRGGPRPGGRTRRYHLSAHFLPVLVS

Structures are written as SMILES. The list shows a part of the results, in another mix than the full data. The source made the active and inactive calls.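 How the source made its calls: active means mean Tm shift, scaled 0 neutral to 100 positive control, at about 1.3% or above, every replicate too (limit read from the data); inconclusive means no clear call, values can overlap the other calls; inactive means the rest.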

The assay addresses Fibroblast growth factor 22 (Homo sapiens) (UniProt Q9HCT0). Put plainly: FGF22 ligand-induced thermal stabilization – biophysical, thermal shift, single point, FGF22 synaptogenesis inhibitor project, primary screen (AID 651658). As to conditions: recombinant FGF22 thermal shift, SYPRO orange fluorescence; at 9.99 µM; active compounds read high; percent of sucrose octasulfate shift, DMSO zero.
`O=c1[nH]c2ccccc2n1C1CCN(C(c2cccs2)c2nnnn2C2CCCC2)CC1` (stereo unspecified): the activity (Tm shift, normalised) was inactive: -0.665%. As to `CCCCn1nnnc1C(c1cccc(OC)c1OC)N1CCC(n2c(=O)[nH]c3ccccc32)CC1` (stereo unspecified), the activity (Tm shift, normalised) is inactive: -0.173%. The figure for `COc1cccc(C(c2nnnn2C(C)(C)C)N2CCC(n3c(=O)[nH]c4ccccc43)CC2)c1OC` (stereo unspecified) is inactive: 0.513%. Then `CCOC(=O)N1CCC(Nc2ccc(C)cc2)CC1`, with inactive: -0.587%; and `O=c1[nH]c2ccccc2n1C1CCN(C(c2cccs2)c2nnnn2C2CCCCC2)CC1` (stereo unspecified), with inactive: -0.575%. The figure for `COc1ccc(C(=O)NCC2(N3CCOCC3)CCCCC2)cc1OC` is inactive: 0.011%. For `O=c1[nH]c2ccccc2n1C1CCN(C(c2ccnc3ccccc23)c2nnnn2C2CCCC2)CC1` (stereo unspecified), the activity (Tm shift, normalised) was inactive: -0.283%. With `CCCCn1nnnc1C(c1ccccc1)N1CCC(n2c(=O)[nH]c3ccccc32)CC1` (stereo unspecified), the activity (Tm shift, normalised) is inactive: 0.348%. The figure for `COc1cc(C(=O)NCC2(N3CCOCC3)CCCCC2)cc(OC)c1C` is inactive: -0.554%. Regarding `O=C(NCC1(N2CCOCC2)CCCCC1)c1cc(Br)ccc1Cl`, the activity (Tm shift, normalised) is inactive: -0.138%. Regarding `CC(C)(C)n1nnnc1C(c1cccc2ccccc12)N1CCC(n2c(=O)[nH]c3ccccc32)CC1` (stereo unspecified), the activity (Tm shift, normalised) is inactive: -0.344%. Turning to `CN(C)C1(CNC(=O)c2cccc(C#N)c2)CCCCC1`, the activity (Tm shift, normalised) was inactive: 0.466%. The figure for `C/C(N)=N\P(=O)(Oc1ccccc1)Oc1ccccc1` is inactive: -0.611%.

Take `Cc1cc(N(CCCl)CCCl)ccc1C=O`: the activity (Tm shift, normalised) was inactive: 0.13%. In the case of `CCCN1CCC(Nc2cc(OC)cc(OC)c2)CC1`, the activity (Tm shift, normalised) was inactive: -0.694%. Then `O=c1[nH]c2ccccc2n1C1CCN(C(c2ccccc2)c2nnnn2C2CCCC2)CC1` (stereo unspecified), with inactive: -0.309%; and `N#Cc1ccc(C(=O)NCC2(N3CCCCC3)CCCCC2)cc1`, with inactive: 0.06%.

Consider `CC(C)(C)OC(=O)N1CCC(N(C(=O)c2ccccc2)c2ccc(Cl)cc2)CC1`, for which the activity (Tm shift, normalised) is inactive: -0.366%. Then `O=C(NCC1(N2CCCCC2)CCCCC1)c1ccco1`, with inactive: -0.235%; and `Cn1c(=O)[nH]cc(N(CCCl)CCCl)c1=O`, with inactive: -0.299%. The figure for `CN(C)c1ccc(C(=O)NCC2(N3CCCCC3)CCCCC2)cc1` is inactive: 0.101%. Then `Cc1ccccc1NC1(C#N)CCN(Cc2ccccc2)CC1`, with inactive: 0.989%; and `CC(C)(C)n1nnnc1C(c1ccnc2ccccc12)N1CCC(n2c(=O)[nH]c3ccccc32)CC1` (stereo unspecified), with inactive: 0.307%. `COc1ccc(C(c2nnnn2C2CCCCC2)N2CCC(n3c(=O)[nH]c4ccccc43)CC2)cc1` (stereo unspecified): the activity (Tm shift, normalised) is inactive: 0.228%. With `Cc1ccc(C(=O)NCC2(N3CCCCC3)CCCCC2)o1`, the activity (Tm shift, normalised) was inactive: -0.205%. Regarding `Fc1ccccc1NC1CCN(Cc2ccccc2)CC1`, the activity (Tm shift, normalised) is inactive: 0.315%. On to `Cc1ccc(NC2(C#N)CCN(Cc3ccccc3)CC2)cc1`, for which the activity (Tm shift, normalised) is inactive: -0.222%. Take `CC(=O)N(c1ccccc1)C1CCNCC1`: the activity (Tm shift, normalised) was inactive: -0.032%. Then `COc1cccc(C(c2nnnn2C2CCCCC2)N2CCC(n3c(=O)[nH]c4ccccc43)CC2)c1OC` (stereo unspecified), with inactive: -0.195%; and `CCC(c1nnnn1C1CCCCC1)N1CCC(n2c(=O)[nH]c3ccccc32)CC1` (stereo unspecified), with inactive: 40.8%.

For `O=c1[nH]c2ccccc2n1C1CCN(C(c2ccnc3ccccc23)c2nnnn2C2CCCCC2)CC1` (stereo unspecified), the activity (Tm shift, normalised) is inactive: -0.353%. The figure for `COc1cc(OC)cc(C(=O)NCC2(N3CCCCC3)CCCCC2)c1` is inactive: -0.164%; for `CN1CCC(Nc2ccc(Cl)cc2)CC1` it is inactive: 0.267%; for `COc1cccc(C(=O)N(c2cc(C)cc(C)c2)C2CCN(C(=O)OC(C)(C)C)CC2)c1` it is inactive: -0.222%. The figure for `COc1cc(OC)cc(C(=O)NCC2(N3CCOCC3)CCCCC2)c1` is inactive: 42.7%; for `COc1cccc(C(c2nnnn2C2CCCC2)N2CCC(n3c(=O)[nH]c4ccccc43)CC2)c1OC` (stereo unspecified) it is inactive: -0.165%; for `CC(C)(C)OC(=O)N1CCC(Nc2ccccc2)CC1` it is inactive: 42.8%.

As for `NN(c1ccccc1)C1CCN(CCc2ccccc2)CC1`, the activity (Tm shift, normalised) was inactive: -0.384%. Take `O=C(O)C1(Nc2ccccc2)CCN(Cc2ccccc2)CC1`: the activity (Tm shift, normalised) is inactive: -0.134%. As to `CCCOc1ccc(C(=O)NCC2(N(C)C)CCCCC2)cc1`, the activity (Tm shift, normalised) was inactive: -0.218%. The figure for `O=c1[nH]c2ccccc2n1C1CCN(C(c2cc3ccccc3o2)c2nnnn2C2CCCC2)CC1` (stereo unspecified) is inactive: -0.131%; for `CN1CCC(Nc2ccc(F)c(Cl)c2)CC1` it is inactive: -0.356%. Then `O=c1[nH]c2ccccc2n1C1CCN(C(c2cc3ccccc3o2)c2nnnn2C2CCCCC2)CC1` (stereo unspecified), with inactive: -0.104%. Take `O=C(OC1CN2CCC1CC2)C1c2ccccc2Oc2ccccc21` (stereo unspecified): the activity (Tm shift, normalised) is inactive: 0.029%. In the case of `O=C(NCC1(N2CCCCC2)CCCCC1)c1ccc(Cl)s1`, the activity (Tm shift, normalised) is inactive: 0.097%. The figure for `N#CC1(Nc2ccccc2)CCN(Cc2ccccc2)CC1` is inactive: 0.171%; for `COc1ccc(Cl)cc1C(=O)NCC1(N2CCOCC2)CCCCC1` it is inactive: -0.257%; for `CCCCn1nnnc1C(c1ccc(OC)cc1)N1CCC(n2c(=O)[nH]c3ccccc32)CC1` (stereo unspecified) it is inactive: -0.483%.

`O=c1[nH]c2ccccc2n1C1CCN(C(c2ccccc2OC(F)(F)F)c2nnnn2C2CCCCC2)CC1` (stereo unspecified): the activity (Tm shift, normalised) was inactive: -0.734%. Consider `O=C(NCC1(N2CCCCC2)CCCCC1)c1ccc(Cl)nc1`, for which the activity (Tm shift, normalised) is inactive: 0.122%. For `Cc1cc(C)cc(N(C(=O)c2ccccc2)C2CCN(C(=O)OC(C)(C)C)CC2)c1`, the activity (Tm shift, normalised) was inactive: 0.097%.

On to `CSc1ccccc1C(=O)NCC1(N2CCCCC2)CCCCC1`, for which the activity (Tm shift, normalised) was inactive: 41%. Then `Cc1cccc(NC2(C#N)CCN(Cc3ccccc3)CC2)c1`, with inactive: 0.156%; and `COc1ccc(C(=O)NCC2(N3CCCCC3)CCCCC2)cc1`, with inactive: 0.285%; and `CCC(c1nnnn1C1CCCC1)N1CCC(n2c(=O)[nH]c3ccccc32)CC1` (stereo unspecified), with inactive: -0.05%. The figure for `CC(C)(C)OC(=O)N1CCC(N(C(=O)c2ccccc2)c2ccc(F)cc2)CC1` is inactive: -0.152%; for `COc1ccc(C(=O)NCC2(N3CCCCC3)CCCCC2)c(OC)c1OC` it is inactive: 0.314%; for `O=C(NCC1(N2CCCCC2)CCCCC1)c1ccc(=O)[nH]c1` it is inactive: -0.169%. For the compound `CCCCn1nnnc1C(c1cccs1)N1CCC(n2c(=O)[nH]c3ccccc32)CC1` (stereo unspecified), the activity (Tm shift, normalised) was inactive: 0.533%. The figure for `O=C(NCC1(N2CCCCC2)CCCCC1)c1cccs1` is inactive: -0.563%. As to `CCCCn1nnnc1C(CC)N1CCC(n2c(=O)[nH]c3ccccc32)CC1` (stereo unspecified), the activity (Tm shift, normalised) was inactive: 0.058%. Then `COc1cc(C(=O)NCC2(N(C)C)CCCCC2)ccc1OC(F)F`, with inactive: -0.127%; and `CCOC(=O)N1CCC(Nc2cccc(C)c2)CC1`, with inactive: -0.265%; and `O=c1[nH]c2ccccc2n1C1CCN(C(c2cccc3ccccc23)c2nnnn2C2CCCC2)CC1` (stereo unspecified), with inactive: -0.222%. Then `O=c1[nH]c2ccccc2n1C1CCN(C(c2ccccc2)c2nnnn2C2CCCCC2)CC1` (stereo unspecified), with inactive: -0.612%. The figure for `O=C(NCC1(N2CCCCC2)CCCCC1)c1ccc(F)cc1` is inactive: -0.314%. Take `CCCCOc1ccc(C(=O)NCC2(N3CCOCC3)CCCCC2)cc1`: the activity (Tm shift, normalised) is inactive: -0.274%.

In the case of `CCCCn1nnnc1C(c1cc2ccccc2o1)N1CCC(n2c(=O)[nH]c3ccccc32)CC1` (stereo unspecified), the activity (Tm shift, normalised) is inactive: 0.353%. The figure for `O=P1(N(CCCl)CCCl)SCCCS1` is inactive: 0.147%; for `CCOC(=O)N1CCC(Nc2ccc(F)cc2)CC1` it is inactive: 0.044%.

Consider `CC(C)(C)n1nnnc1C(c1ccccc1)N1CCC(n2c(=O)[nH]c3ccccc32)CC1` (stereo unspecified), for which the activity (Tm shift, normalised) was inactive: 0.001%. Turning to `O=C1CCN(Cc2ccccc2)CC1`, the activity (Tm shift, normalised) is inactive: 0.274%. The figure for `CCOc1ccc(C)cc1CN(CCCl)CCCl` is inactive: 0.275%; for `COc1cc(C(=O)NCC2(N3CCCCC3)CCCCC2)ccc1OC(F)F` it is inactive: -0.076%. The figure for `CCCCn1nnnc1C(c1cccc2ccccc12)N1CCC(n2c(=O)[nH]c3ccccc32)CC1` (stereo unspecified) is inactive: -0.126%; for `CC(C)c1ccc(C(=O)NCC2(N3CCOCC3)CCCCC2)cc1` it is inactive: -0.422%; for `COc1ccc(NC2CCN(C(=O)OC(C)(C)C)CC2)cc1` it is inactive: 0.287%. As for `CN1CCN(CCOC(=O)C(O)(c2ccccc2)c2ccccc2)CC1`, the activity (Tm shift, normalised) is inactive: -0.444%. `O=C(NCC1(N2CCCCC2)CCCCC1)c1cccc(C(F)(F)F)c1`: the activity (Tm shift, normalised) was inactive: 0.055%.

Regarding `CCN1CCC(Nc2ccc(Cl)cc2)CC1`, the activity (Tm shift, normalised) is inactive: -0.3%. On to `O=c1[nH]c2ccccc2n1C1CCN(C(c2ccccc2OC(F)(F)F)c2nnnn2C2CCCC2)CC1` (stereo unspecified), for which the activity (Tm shift, normalised) is inactive: -0.349%. The figure for `O=C(NCC1(N2CCCCC2)CCCCC1)c1cccc([N+](=O)[O-])c1` is inactive: 0.106%; for `CSc1ccc(C(=O)NCC2(N3CCOCC3)CCCCC2)cc1` it is inactive: -0.194%.

In the case of `CC(C)(C)n1nnnc1C(c1ccccc1OC(F)(F)F)N1CCC(n2c(=O)[nH]c3ccccc32)CC1` (stereo unspecified), the activity (Tm shift, normalised) is inactive: -0.222%.

For `O=C(NCC1(N2CCCCC2)CCCCC1)c1ccc(OC(F)F)cc1`, the activity (Tm shift, normalised) is inactive: 0.208%.

In the case of `COc1ccc(C(c2nnnn2C2CCCC2)N2CCC(n3c(=O)[nH]c4ccccc43)CC2)cc1` (stereo unspecified), the activity (Tm shift, normalised) is inactive: -0.287%. The figure for `Cc1ccc(C(=O)NCC2(N(C)C)CCCCC2)o1` is inactive: -0.312%; for `CCCOc1ccc(C(=O)NCC2(N(C)C)CCCCC2)cc1OC` it is inactive: -0.264%; for `O=C(NCC1(N2CCCCC2)CCCCC1)c1cncc(Br)c1` it is inactive: 0.103%. The figure for `CN1CCC(Nc2cccc(F)c2)CC1` is inactive: 0.122%; for `COc1cc(OC)c(C(=O)NCC2(N(C)C)CCCCC2)cc1OC` it is inactive: 0.272%. The figure for `CCC(c1nnnn1C(C)(C)C)N1CCC(n2c(=O)[nH]c3ccccc32)CC1` (stereo unspecified) is inactive: 1.22%; for `O=C(NCC1(N2CCOCC2)CCCCC1)c1cc(F)c(F)cc1Cl` it is inactive: -0.067%. In the case of `CCCCn1nnnc1C(c1ccnc2ccccc12)N1CCC(n2c(=O)[nH]c3ccccc32)CC1` (stereo unspecified), the activity (Tm shift, normalised) is inactive: 0.267%. Regarding `CC(C)c1ccc(NC2CCN(C(=O)OC(C)(C)C)CC2)cc1`, the activity (Tm shift, normalised) is inactive: 0.665%. As to `CN(C)c1cccc(C(=O)NCC2(N3CCCCC3)CCCCC2)c1`, the activity (Tm shift, normalised) was inactive: 0.031%.
